Data as given in publication PMC10999543, “Identification of kinase modulators as host-directed therapeutics against intracellular methicillin-resistant Staphylococcus aureus” (Frontiers in Cellular and Infection Microbiology, 2024).

System: HeLa cells
Assay: Compound screen by flow cytometry: HeLa cell count as surrogate readout of cell viability (z-scoreHeLa); note: test concentration or dose not given here
Assay type: cell-based, human
Details: for cell count rep 1 / cell count rep 2 / cell count rep 3 / z-scoreHeLa mean / z-scoreHeLa rep 1 / z-scoreHeLa rep 2 / z-scoreHeLa rep 3: human

SMILES | cell death | cell count rep 1 | cell count rep 2 | cell count rep 3 | z-scoreHeLa mean | z-scoreHeLa rep 1 | z-scoreHeLa rep 2 | z-scoreHeLa rep 3
Fc1ccc(-c2ncn(C3CCNCC3)c2-c2ccnc(Oc3ccc(Cl)cc3)n2)cc1 [SB-278539] | No | 20843 | 37327 | 42866 | 0.32 | 0.11 | 0.47 | 0.37
COc1ccccc1C1=C(Nc2ccc(O)c(Cl)c2)C(=O)NC1=O [SB-381904] | No | 26704 | 24480 | 37581 | -0.46 | 1.00 | -1.92 | -0.47
Fc1ccc(-c2ncn(C3CCNCC3)c2-c2ccnc(Oc3cccc(C(F)(F)F)c3)n2)cc1 [SB-253226] | No | 19768 | 24303 | 40741 | -0.66 | -0.0536 | -1.96 | 0.0339
Fc1ccc(-c2ncn(C3CCNCC3)c2-c2ccnc(Oc3cccc(F)c3)n2)cc1 [SB-251505] | No | 24508 | 35794 | 37877 | 0.14 | 0.67 | 0.19 | -0.42
